Test results from US20260382605A1, “REVERSIBLE MACROCYCLIC KINASE INHIBITORS” (published 2026).

Key:
[1] = test system: MOLM-13 acute myelogenous leukemia cells; assay: Cell proliferation assay MOLM-13; settings: read-out: IC50 value, MOLM-13 cells, 72 hours
Method: (§1) MOLM-13 acute myelogenous leukemia cells were purchased from Deutsche Sammlung von Mikroorganismen und Zellkulturen (cat. no. ACC 554, DSMZ). Frozen stocks were thawed and cells were diluted in RPMI-1640 cell culture medium (cat. no. 61870036, Life Technologies), supplemented with 10% (v/v) bovine calf serum and 1% penicillin/streptavidin. 800 cells per well (in 45 μl) were seeded in a white 384-well culture plate (cat. no. 781080, Greiner Bio-One) and allowed to rest for 24 hours at 37 °C, 95% humidity, and 5% CO2. 5 μl compound solution was added to the cells and incubation was continued for 72 hours (3 days), followed by addition of 24 μl ATPlite 1Step™ (PerkinElmer, Groningen, The Netherlands) solution was added to each well. Luminescence was recorded on an Envision multimode reader. The cell signal at the start of incubation was recorded separately in order to distinguish between cell population growth and cell death. In addition, maximum growth was determined by incubation of a duplicate without compound in the presence of 0.3% DMSO. Percentage growth was used as the main y-axis signal. IC50s were fitted by non-linear regression using IDBS XLfit™5 using a 4-parameter logistic curve, yielding a maximum signal, minimum signal, hill-parameter and IC50.

[2] = test system: CTV-1 T acute lymphoblastic leukemia cells; assay: Cell proliferation assay CTV-1; settings: read-out: IC50 value, CTV-1 cells, 72 hours
Method: as §1, with “CTV-1 T” for “MOLM-13”, “lymphoblastic” for “myelogenous”, “40,” for “554,”, “1600” for “800”

[3] = test system: CCRF-HSB-2 T acute lymphoblastic leukemia cells; assay: Cell proliferation assay CCRF-HSB-2; settings: read-out: IC50 value, CCRF-HSB-2 cells, 72 hours
Method: as §1, with “CCRF-HSB-2 T” for “MOLM-13”, “lymphoblastic” for “myelogenous”, “435,” for “554,”, “3200” for “800”

SMILES | IC50 [1] | IC50 [2] | IC50 [3]
CC(C)(C)c1cc(NC(=O)Cc2ccc(-c3nc4n5c(cnc(N)c35)/C=C/CCOCCC(=O)N[C@@H]3CCC[C@@H]4C3)cc2)no1 | < 75 nM |  | 
Nc1ncc2c3c1c(-c1ccc(C(=O)Nc4cc(C(F)(F)F)ccn4)cc1)nn3[C@@H]1CCC[C@H](C1)NC(=O)[C@H]1CN(C/C=C/2)CCN1 |  | < 50 nM | < 50 nM
